In article PMC12655037, “Mitochondrial-Targeted Triphenylphosphonium-Conjugated Ionophores with Enhanced Cytotoxicity in Cancer Cells” (Molecules, 2025):

Legend:
[1] = test system: SW480 human primary colon cancer cells; assay: MTT assay, SW480 cells; assay type: cell-based
[2] = test system: SW620 human metastatic colon cancer cells; assay: MTT assay, SW620 cells; assay type: cell-based
[3] = test system: PC3 human metastatic prostate cancer cells; assay: MTT assay, PC3 cells; assay type: cell-based
[4] = test system: MDA-MB-231 human breast cancer cells; assay: MTT assay, MDA-MB-231 cells; assay type: cell-based; details: for IC50: Homo sapiens, MDA-MB-231, 72 h, read-out: IC50 MDA-MB-231
[5] = test system: A549 human lung cancer cells; assay: MTT assay, A549 cells; assay type: cell-based
[6] = test system: MiaPaCa human pancreas cancer cells; assay: MTT assay, MiaPaCa cells; assay type: cell-based; details: for IC50: Homo sapiens, MIA PaCa-2, 72 h, read-out: IC50 MiaPaCa
[7] = test system: HaCaT human immortal keratinocytes; assay: cells; assay type: cell-based; details: 72 h, read-out: IC50 HaCaT (normal cells)
[8] = test system: V79 Chinese hamster lung fibroblasts; assay: MTT assay, V79 cells; assay type: cell-based; details: Cricetulus griseus, Fibroblast, 72 h, read-out: IC50 V79 (normal cells)

CCC1(C2OC(C3OC(O)(Cn4cc(COC(=O)CCC[P+](c5ccccc5)(c5ccccc5)c5ccccc5)nn4)C(C)CC3C)CC2C)CCC(C2(C)CCC3(CC(O)C(C)C(C(C)C(OC)C(C)C(=O)O)O3)O2)O1 (centres unmarked) [2b] was tested, and the “Selectivity index (SI) HaCaT / SW480” value [1] was 1.4, the “Selectivity index (SI) V79 / SW480” value [1] was 8.6 and the “Selectivity index (SI) HaCaT / SW620” value [2] was 0.7. For the same molecule, the “Selectivity index (SI) V79 / SW620” value [2] was 4.6, the “Selectivity index (SI) HaCaT / PC3” value [3] was 1.6 and the “Selectivity index (SI) V79 / PC3” value [3] was 9.9. For the same molecule, the “Selectivity index (SI) HaCaT / MDA-MB-231” value [4] was 0.6, the “Selectivity index (SI) V79 / MDA-MB-231” value [4] was 4.1 and the IC50 [4] was 1.7 ± 0.1 µM. The “Selectivity index (SI) HaCaT / A549” value [5] was 0.3, the “Selectivity index (SI) V79 / A549” value [5] was 2.0 and the “Selectivity index (SI) HaCaT / MiaPaCa” value [6] was 1.0. The “Selectivity index (SI) V79 / MiaPaCa” value [6] was 6.3, the IC50 [6] was 1.1 ± 0.3 µM and the IC50 [7] was 1.1 ± 0.5 µM. The IC50 [8] was 6.9 ± 1.9 µM.

In the case of CCCC[P+](CCCC)(CCCC)Cc1cn(CC2(O)OC(C3CC(C)C(C4(CC)CCC(C5(C)CCC6(CC(O)C(C)C(C(C)C(OC)C(C)C(=O)O)O6)O5)O4)O3)C(C)CC2C)nn1 (centres unmarked) [2d], the “Selectivity index (SI) HaCaT / SW480” value [1] is reported as 0.5, the “Selectivity index (SI) V79 / SW480” value [1] is reported as 1.2 and the “Selectivity index (SI) HaCaT / SW620” value [2] is reported as 0.4. The “Selectivity index (SI) V79 / SW620” value [2] was 1.0, the “Selectivity index (SI) HaCaT / PC3” value [3] was 0.5 and the “Selectivity index (SI) V79 / PC3” value [3] was 1.4. For the same molecule, the “Selectivity index (SI) HaCaT / MDA-MB-231” value [4] was 1.1, the “Selectivity index (SI) V79 / MDA-MB-231” value [4] was 3.0 and the IC50 [4] was 1.4 ± 0.2 µM. For the same molecule, the “Selectivity index (SI) HaCaT / A549” value [5] was 1.1, the “Selectivity index (SI) V79 / A549” value [5] was 3.0 and the “Selectivity index (SI) HaCaT / MiaPaCa” value [6] was 1.0. For the same molecule, the “Selectivity index (SI) V79 / MiaPaCa” value [6] was 2.6, the IC50 [6] was 1.6 ± 0.3 µM and the IC50 [7] was 1.6 ± 0.2 µM. It also gave an IC50 [8] of 4.2 ± 1.4 µM.

CC[C@@H](C(=O)[C@@H](C)[C@@H](O)[C@H](C)[C@@H]1O[C@@H]([C@@H](CC)C(=O)O)CC[C@@H]1C)[C@H]1O[C@]2(C=C[C@H](NC(=O)CCC[P+](c3ccccc3)(c3ccccc3)c3ccccc3)[C@]3(CC[C@@](C)([C@H]4CC[C@](O)(CC)[C@H](C)O4)O3)O2)[C@H](C)C[C@@H]1C [1e] was tested, and the “Selectivity index (SI) HaCaT / SW480” value [1] was 0.8, the “Selectivity index (SI) V79 / SW480” value [1] was 0.8 and the “Selectivity index (SI) HaCaT / SW620” value [2] was 0.8. The “Selectivity index (SI) V79 / SW620” value [2] was 0.8, the “Selectivity index (SI) HaCaT / PC3” value [3] was 2.1 and the “Selectivity index (SI) V79 / PC3” value [3] was 2.2. For the same molecule, the “Selectivity index (SI) HaCaT / MDA-MB-231” value [4] was 1.2, the “Selectivity index (SI) V79 / MDA-MB-231” value [4] was 1.3 and the IC50 [4] was 6.7 ± 1.2 µM. For the same molecule, the “Selectivity index (SI) HaCaT / A549” value [5] was 1.6, the “Selectivity index (SI) V79 / A549” value [5] was 1.7 and the “Selectivity index (SI) HaCaT / MiaPaCa” value [6] was 1.3. For the same molecule, the “Selectivity index (SI) V79 / MiaPaCa” value [6] was 1.4 and the IC50 [6] was 6.4 ± 0.2 µM.

Molecule CC[C@@H](C(=O)[C@@H](C)[C@@H](O)[C@H](C)[C@@H]1O[C@@H]([C@@H](CC)C(=O)O)CC[C@@H]1C)[C@H]1O[C@]2(C=C[C@@H](O)[C@]3(CC[C@@](C)([C@H]4CC[C@](O)(CC)[C@H](C)O4)O3)O2)[C@H](C)C[C@@H]1C [SAL, Salinomycin, reference compound] has an IC50 [4] of 1 ± 0.1 µM, an IC50 [6] of 2.6 ± 0.1 µM and an IC50 [7] of 0.6 ± 0.1 µM. For the same molecule, the IC50 [8] was 1.2 ± 0.1 µM.

With CCC1(C2OC(C3OC(O)(Cn4cc(CNC(=O)CCC[P+](c5ccccc5)(c5ccccc5)c5ccccc5)nn4)C(C)CC3C)CC2C)CCC(C2(C)CCC3(CC(O)C(C)C(C(C)C(OC)C(C)C(=O)O)O3)O2)O1 (centres unmarked) [2c] the “Selectivity index (SI) HaCaT / SW480” value [1] was 0.8, the “Selectivity index (SI) V79 / SW480” value [1] was 1.8 and the “Selectivity index (SI) HaCaT / SW620” value [2] was 1.4. For the same molecule, the “Selectivity index (SI) V79 / SW620” value [2] was 3.0, the “Selectivity index (SI) HaCaT / PC3” value [3] was 1.0 and the “Selectivity index (SI) V79 / PC3” value [3] was 2.2. For the same molecule, the “Selectivity index (SI) HaCaT / MDA-MB-231” value [4] was 1.0, the “Selectivity index (SI) V79 / MDA-MB-231” value [4] was 2.3 and the IC50 [4] was 13.9 ± 2.6 µM. The “Selectivity index (SI) HaCaT / A549” value [5] was 1.0, the “Selectivity index (SI) V79 / A549” value [5] was 2.2 and the “Selectivity index (SI) HaCaT / MiaPaCa” value [6] was 1.0. The “Selectivity index (SI) V79 / MiaPaCa” value [6] was 2.3, the IC50 [6] was 13.9 ± 0.7 µM and the IC50 [7] was 14.5 ± 3.3 µM. For the same molecule, the IC50 [8] was 32.2 ± 1 µM.

In the case of CC[C@@H](C(=O)[C@@H](C)[C@@H](O)[C@H](C)[C@@H]1O[C@@H]([C@@H](CC)C(=O)O)CC[C@@H]1C)[C@H]1O[C@]2(C=C[C@H](n3cc(CNC(=O)CCC[P+](c4ccccc4)(c4ccccc4)c4ccccc4)nn3)[C@]3(CC[C@@](C)([C@H]4CC[C@](O)(CC)[C@H](C)O4)O3)O2)[C@H](C)C[C@@H]1C [1c], the “Selectivity index (SI) HaCaT / SW480” value [1] is reported as 0.7, the “Selectivity index (SI) V79 / SW480” value [1] is reported as 1.7 and the “Selectivity index (SI) HaCaT / SW620” value [2] is reported as 0.5. For the same molecule, the “Selectivity index (SI) V79 / SW620” value [2] was 1.2, the “Selectivity index (SI) HaCaT / PC3” value [3] was 0.6 and the “Selectivity index (SI) V79 / PC3” value [3] was 1.3. The “Selectivity index (SI) HaCaT / MDA-MB-231” value [4] was 0.6, the “Selectivity index (SI) V79 / MDA-MB-231” value [4] was 1.5 and the IC50 [4] was 11.4 ± 1.3 µM. The “Selectivity index (SI) HaCaT / A549” value [5] was 0.5, the “Selectivity index (SI) V79 / A549” value [5] was 1.1 and the “Selectivity index (SI) HaCaT / MiaPaCa” value [6] was 0.5. The “Selectivity index (SI) V79 / MiaPaCa” value [6] was 1.2 and the IC50 [6] was 14.1 ± 1.5 µM.

In the case of CCCC[P+](CCCC)(CCCC)Cc1cn([C@H]2C=C[C@]3(O[C@H]([C@@H](CC)C(=O)[C@@H](C)[C@@H](O)[C@H](C)[C@@H]4O[C@@H]([C@@H](CC)C(=O)O)CC[C@@H]4C)[C@@H](C)C[C@H]3C)O[C@@]23CC[C@@](C)([C@H]2CC[C@](O)(CC)[C@H](C)O2)O3)nn1 [1d], the “Selectivity index (SI) HaCaT / SW480” value [1] is reported as 1.0, the “Selectivity index (SI) V79 / SW480” value [1] is reported as 1.9 and the “Selectivity index (SI) HaCaT / SW620” value [2] is reported as 1.3. The “Selectivity index (SI) V79 / SW620” value [2] was 2.7, the “Selectivity index (SI) HaCaT / PC3” value [3] was 0.7 and the “Selectivity index (SI) V79 / PC3” value [3] was 1.3. The “Selectivity index (SI) HaCaT / MDA-MB-231” value [4] was 0.5, the “Selectivity index (SI) V79 / MDA-MB-231” value [4] was 1.0 and the IC50 [4] was 5 ± 0.3 µM. The “Selectivity index (SI) HaCaT / A549” value [5] was 0.7, the “Selectivity index (SI) V79 / A549” value [5] was 1.3 and the “Selectivity index (SI) HaCaT / MiaPaCa” value [6] was 0.8. The “Selectivity index (SI) V79 / MiaPaCa” value [6] was 1.7 and the IC50 [6] was 2.9 ± 0.6 µM.

CC[C@@H](C(=O)[C@@H](C)[C@@H](O)[C@H](C)[C@@H]1O[C@@H]([C@@H](CC)C(=O)OCCCCCC[P+](c2ccccc2)(c2ccccc2)c2ccccc2)CC[C@@H]1C)[C@H]1O[C@]2(C=C[C@@H](OC(=O)CCC(=O)OCCCCCC[P+](c3ccccc3)(c3ccccc3)c3ccccc3)[C@]3(CC[C@@](C)([C@H]4CC[C@](O)(CC)[C@H](C)O4)O3)O2)[C@H](C)C[C@@H]1C [1f] was tested, and the “mitochondrial ROS (mtROS) production” value (A549 cells) was “induced mtROS production” and the “mitochondrial ROS (mtROS) production” value (MDA-MB-231 cells) was “induced mtROS production”.

With CC[C@@H](C(=O)[C@@H](C)[C@@H](O)[C@H](C)[C@@H]1O[C@@H]([C@@H](CC)C(=O)O)CC[C@@H]1C)[C@H]1O[C@]2(C=C[C@H](n3cc(COC(=O)CCC[P+](c4ccccc4)(c4ccccc4)c4ccccc4)nn3)[C@]3(CC[C@@](C)([C@H]4CC[C@](O)(CC)[C@H](C)O4)O3)O2)[C@H](C)C[C@@H]1C [1b] the “Selectivity index (SI) HaCaT / SW480” value [1] was 0.3, the “Selectivity index (SI) V79 / SW480” value [1] was 0.5 and the “Selectivity index (SI) HaCaT / SW620” value [2] was 0.2. The “Selectivity index (SI) V79 / SW620” value [2] was 0.3, the “Selectivity index (SI) HaCaT / PC3” value [3] was 0.5 and the “Selectivity index (SI) V79 / PC3” value [3] was 0.8. For the same molecule, the “Selectivity index (SI) HaCaT / MDA-MB-231” value [4] was 0.5, the “Selectivity index (SI) V79 / MDA-MB-231” value [4] was 0.9 and the IC50 [4] was 5.2 ± 0.2 µM. For the same molecule, the “Selectivity index (SI) HaCaT / A549” value [5] was 0.7, the “Selectivity index (SI) V79 / A549” value [5] was 1.2 and the “Selectivity index (SI) HaCaT / MiaPaCa” value [6] was 0.3. The “Selectivity index (SI) V79 / MiaPaCa” value [6] was 0.5 and the IC50 [6] was 8.5 ± 1.5 µM.
